Results reported in patent US9579314B2 (priority 2015, dated 2017).

How the values were obtained:
[1] = molecular target: Human M3 receptor (Homo sapiens, UniProt P20309); experiment: M3 Receptor Radioligand Binding Assay; settings: read-out: M3 binding affinity, Human M3 receptor membranes, classified in ranges
[2] = molecular target: Human β2 adrenoceptor (Homo sapiens, UniProt P07550); experiment: β2 Adrenoceptor Radioligand Binding Assay; settings: read-out: B2 binding affinity, Human β2 adrenoceptor membranes, classified in ranges

Row | Structure (SMILES) | IC50 [1] | IC50 [2]
1 | O=C(O[C@H]1CN2CCC1CC2)C(O)(c1ccccc1)c1ccc(OCCCCCNC[C@H](O)c2ccc(O)c3[nH]c(=O)ccc23)cc1 (stereo partly shown) | 300 to 3000 pM | < 300 pM
2 | O=C(Nc1cccc(C(O)(C(=O)O[C@H]2CN3CCC2CC3)c2ccccc2)c1)c1ccc(OCCCCCNC[C@H](O)c2ccc(O)c3[nH]c(=O)ccc23)cc1 (stereo partly shown) | 300 to 3000 pM | < 300 pM
